# Experimental data taken from PubChem BioAssay AID651718 (The Scripps Research Institute Molecular Screening Center, 2012).
# This is a selection; strong and weak results do not stand in their true shares. The source made the active and inactive calls. No stated cut-off is given here; in the data, active means inhibition above about 4.5%; inactive means the rest.
# Tested on: Methionine sulfoxide reductase A (Bos taurus)
# Assay: bovine MsrA enzyme inhibitors, primary screen, biochemical, absorbance, HTS (AID 651718);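 further: 0% = vehicle wells with enzyme and 100% = reference inhibitor wells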
# Conditions: purified bovine MsrA, absorbance read-out; at 15.5 µM; stronger effect = higher value
row,Structure (SMILES),inhibition
1,O=C(NCC1(N2CCCCC2)CCCCC1)c1ccco1,inactive: -0.47%
2,CN(C)c1ccc(C(=O)NCC2(N3CCCCC3)CCCCC2)cc1,inactive: 1.4%
3,Cn1c(=O)[nH]cc(N(CCCl)CCCl)c1=O,inactive: -0.14%
4,Cc1ccccc1NC1(C#N)CCN(Cc2ccccc2)CC1,inactive: -0.67%
5,COc1ccc(C(c2nnnn2C2CCCCC2)N2CCC(n3c(=O)[nH]c4ccccc43)CC2)cc1 (stereo unspecified),inactive: -1.27%
6,CCN1CCC(Nc2cccc(F)c2)CC1,inactive: -0.31%
7,CC(C)(C)n1nnnc1C(c1ccnc2ccccc12)N1CCC(n2c(=O)[nH]c3ccccc32)CC1 (stereo unspecified),inactive: -0.64%
8,Cc1ccc(C(=O)NCC2(N3CCCCC3)CCCCC2)o1,inactive: 0.4%
9,Fc1ccccc1NC1CCN(Cc2ccccc2)CC1,inactive: -0.59%
10,Cc1ccc(NC2(C#N)CCN(Cc3ccccc3)CC2)cc1,inactive: 0.57%
11,COc1cccc(C(c2nnnn2C2CCCCC2)N2CCC(n3c(=O)[nH]c4ccccc43)CC2)c1OC (stereo unspecified),inactive: -0.24%
12,CC(=O)N(c1ccccc1)C1CCNCC1,inactive: 0.9%
13,CCC(c1nnnn1C1CCCCC1)N1CCC(n2c(=O)[nH]c3ccccc32)CC1 (stereo unspecified),inactive: 0.88%
14,COc1cc(OC)cc(C(=O)NCC2(N3CCCCC3)CCCCC2)c1,inactive: -0.2%
15,O=c1[nH]c2ccccc2n1C1CCN(C(c2ccnc3ccccc23)c2nnnn2C2CCCCC2)CC1 (stereo unspecified),inactive: 1.46%
16,CN1CCC(Nc2ccc(Cl)cc2)CC1,inactive: 0.5%
17,COc1cccc(C(=O)N(c2cc(C)cc(C)c2)C2CCN(C(=O)OC(C)(C)C)CC2)c1,inactive: -0.79%
18,COc1cc(OC)cc(C(=O)NCC2(N3CCOCC3)CCCCC2)c1,inactive: 0.52%
19,COc1cccc(C(c2nnnn2C2CCCC2)N2CCC(n3c(=O)[nH]c4ccccc43)CC2)c1OC (stereo unspecified),inactive: -1.21%
20,CCC(CO)(C(=O)OC1CN2CCC1CC2)c1ccccc1 (stereo unspecified),inactive: 0.25%
21,CC(C)(C)OC(=O)N1CCC(Nc2ccccc2)CC1,inactive: 0.42%

row,Structure (SMILES),inhibition
1,NN(c1ccccc1)C1CCN(CCc2ccccc2)CC1,inactive: -0.23%
2,O=C(O)C1(Nc2ccccc2)CCN(Cc2ccccc2)CC1,inactive: -0.38%
3,O=c1[nH]c2ccccc2n1C1CCN(C(c2cc3ccccc3o2)c2nnnn2C2CCCC2)CC1 (stereo unspecified),inactive: 2.01%
4,CCCOc1ccc(C(=O)NCC2(N(C)C)CCCCC2)cc1,inactive: 1.02%
5,CCOc1ncccc1C(=O)NCC1(N2CCOCC2)CCCCC1,inactive: 0.56%
6,CN1CCC(Nc2ccc(F)c(Cl)c2)CC1,inactive: 0.5%
7,O=C(OC1CN2CCC1CC2)C1c2ccccc2C=Cc2ccccc21 (stereo unspecified),inactive: -0.56%
8,O=c1[nH]c2ccccc2n1C1CCN(C(c2cccs2)c2nnnn2C2CCCC2)CC1 (stereo unspecified),inactive: -0.37%
9,CCCCn1nnnc1C(c1cccc(OC)c1OC)N1CCC(n2c(=O)[nH]c3ccccc32)CC1 (stereo unspecified),inactive: -0.39%
10,CCOC(=O)N1CCC(Nc2ccc(C)cc2)CC1,inactive: 1.14%
11,COc1cccc(C(c2nnnn2C(C)(C)C)N2CCC(n3c(=O)[nH]c4ccccc43)CC2)c1OC (stereo unspecified),inactive: -0.75%
12,N/C(=N\O)c1c(N)no[n+]1[O-],inactive: 0.14%
13,O=c1[nH]c2ccccc2n1C1CCN(C(c2cccs2)c2nnnn2C2CCCCC2)CC1 (stereo unspecified),inactive: 0.6%
14,COc1ccc(C(=O)NCC2(N3CCOCC3)CCCCC2)cc1OC,inactive: 0.4%
15,O=c1[nH]c2ccccc2n1C1CCN(C(c2ccnc3ccccc23)c2nnnn2C2CCCC2)CC1 (stereo unspecified),inactive: -1.3%
16,CCCCn1nnnc1C(c1ccccc1)N1CCC(n2c(=O)[nH]c3ccccc32)CC1 (stereo unspecified),inactive: -0.29%
17,COc1cc(C(=O)NCC2(N3CCOCC3)CCCCC2)cc(OC)c1C,inactive: -0.2%
18,O=C(NCC1(N2CCOCC2)CCCCC1)c1cc(Br)ccc1Cl,inactive: 0.09%
19,CC(C)(C)n1nnnc1C(c1cccc2ccccc12)N1CCC(n2c(=O)[nH]c3ccccc32)CC1 (stereo unspecified),inactive: 0.84%
20,CN(C)C1(CNC(=O)c2cccc(C#N)c2)CCCCC1,inactive: -0.35%
21,C/C(N)=N\P(=O)(Oc1ccccc1)Oc1ccccc1,inactive: -0.55%

row,Structure (SMILES),inhibition
1,c1ccc(CN2CCC(Nc3ccccc3)CC2)cc1,inactive: 0.68%
2,O=c1[nH]c2ccccc2n1C1CCN(C(c2ccccc2)c2nnnn2C2CCCC2)CC1 (stereo unspecified),inactive: 2.09%
3,CCCN1CCC(Nc2cc(OC)cc(OC)c2)CC1,inactive: 0.23%
4,Cc1cc(N(CCCl)CCCl)ccc1C=O,inactive: 3.58%
5,N#Cc1ccc(C(=O)NCC2(N3CCCCC3)CCCCC2)cc1,inactive: -0.1%
6,CC(C)(C)OC(=O)N1CCC(N(C(=O)c2ccccc2)c2ccc(Cl)cc2)CC1,inactive: -0.29%
7,O=C(NCC1(N2CCOCC2)CCCCC1)c1cc(=O)[nH]c2ccccc12,inactive: -0.41%
8,COc1cc(C(=O)NCC2(N3CCCCC3)CCCCC2)ccc1OC(F)F,inactive: -1.77%
9,COc1ccc(NC2CCN(C(=O)OC(C)(C)C)CC2)cc1,inactive: 1.49%
10,CC(C)c1ccc(C(=O)NCC2(N3CCOCC3)CCCCC2)cc1,inactive: 0.14%
11,CN1CCN(CCOC(=O)C(O)(c2ccccc2)c2ccccc2)CC1,inactive: -0.96%
12,CCCCn1nnnc1C(c1cccc2ccccc12)N1CCC(n2c(=O)[nH]c3ccccc32)CC1 (stereo unspecified),inactive: 1.28%
13,O=C(NCC1(N2CCCCC2)CCCCC1)c1cccc(C(F)(F)F)c1,inactive: -0.04%
14,CCN1CCC(Nc2ccc(Cl)cc2)CC1,inactive: 0.41%
15,O=c1[nH]c2ccccc2n1C1CCN(C(c2ccccc2OC(F)(F)F)c2nnnn2C2CCCC2)CC1 (stereo unspecified),inactive: 1.18%
16,N#CC1(Nc2ccccc2)CCN(CCc2ccccc2)CC1,inactive: -0.25%
17,O=C(NCC1(N2CCCCC2)CCCCC1)c1cccc([N+](=O)[O-])c1,inactive: 0%
18,CSc1ccc(C(=O)NCC2(N3CCOCC3)CCCCC2)cc1,inactive: 1.09%
19,CC(C)(C)n1nnnc1C(c1ccccc1OC(F)(F)F)N1CCC(n2c(=O)[nH]c3ccccc32)CC1 (stereo unspecified),inactive: -0.73%
